Experimental data: PubChem BioAssay AID1049 (The Scripps Research Institute Molecular Screening Center, 2008)
The entries are a selection whose mix differs from that of the whole data set. Some of these compounds have results that are not shown, active ones among them. Active and inactive are the calls of the source. Cut-off read from the data, not from the text of the source: active = TR-FRET ratio above about 2000; inactive = the rest.

Assay: TR-FRET signal artefacts, primary screen, artefact control for PPARgamma SRC-2 agonist project, biochemical (AID 1049)
Conditions: TR-FRET artefact counter-screen; at 8 µM; stronger effect = higher value

Row | SMILES | TR-FRET ratio
1 | O=C(OC1CN2CCC1CC2)C(CO)(c1ccccc1)c1ccccc1 (centres undefined) | inactive: 1510
2 | CN(C)c1cccc(C(=O)NCC2(N(C)C)CCCCC2)c1 | inactive: 1640
3 | COc1cccc(C(=O)NCC2(N3CCCCC3)CCCCC2)c1 | inactive: 1460
4 | CN(C)C1CCCC1OC(=O)C(O)(c1ccccc1)c1ccccc1 (centres undefined) | inactive: 1550
5 | Cc1ccccc1C(=O)NCC1(N2CCCCC2)CCCCC1 | inactive: 1660
6 | CCN1CCCC(OC(=O)C2(O)c3ccccc3C=Cc3ccccc32)C1 (centres undefined) | inactive: 1510
7 | C=CCN1CCN(CCOC(=O)C(O)(c2ccccc2)c2ccccc2)CC1 | inactive: 1600
8 | O=C(NCC1(N2CCCCC2)CCCCC1)c1cc([N+](=O)[O-])ccc1Cl | inactive: 1360
9 | CC(C)N1C(=O)CC2(CCN(CCOC(=O)C(O)(c3ccccc3)c3ccccc3)CC2)C1=O | inactive: 1660
